Data from patent US8501713B2, “Drug combinations for the treatment of duchenne muscular dystrophy” (Summit Corporation PLC, priority 2007, dated 2013).

Test system: Utrophin A promoter linked to a luciferase reporter gene
Test: Luciferase reporter assay (murine H2K cells)
Type: cell-based
Settings: Mus musculus, H2K mdx

SMILES: CCP(=O)(OC)c1ccc2oc(-c3ccc(Cl)cc3)nc2c1 (stereo not shown) [Example 455, Methyl 2-(4-chlorophenyl)benzo[d]oxazol-5-yl(ethyl)phosphinate]
- activity at 10 µM: > 401%
